{"source": "patent US20240245770A1", "about": "“COMPOSITIONS AND METHODS FOR TREATING NEUROMUSCULAR DISORDERS” (The Regents of the University of California, priority 2019, published 2024)", "tested_on": "Purified CD8+ T cells", "assay": "CD8 ELISA, IFN-γ secretion", "format": "cell-based, human", "experimental": "(§1) CD8 ELISA. CD8+ T cells were isolated from PBMC following manufacturer's instruction. Purified CD8+ T cells were left untreated, treated with IL-2 (1000 U/mL) or treated with the combination of IL-2 and anti-CD3/28 mAb (25 μl/ml) or IL-2+sAJ2 (Cells:sAJ2 1:20). After an overnight treatment at 37° C., the supernatants were harvested and the levels of IFN-γ secretion were measured using ELISA (Table 32).\nPBMC ELISA. CD8+ T cells were isolated from PBMC following manufacturer's instruction and they were left untreated, treated with IL-2 (1000 U/mL) or treated with the combination of IL-2+anti-CD3/28 antibodies (25 μl/mL) or IL-2+sAJ2 (Cells:sAJ2 1:20). After an overnight treatment at 37° C., the supernatants were harvested and the levels of IFN-γ secretion were measured using ELISA (Table 39).\nas §1, with “Elisa.” for “ELISA.”, “46).” for “32).”"}
{"substance": "Recombinant human IL-2", "values": [{"measurement": "IFN-γ secretion, ELISA, Mean", "setting": "CD8 (1:5) of P113 HA, overnight treatment at 37° C.", "value": 68.2}, {"measurement": "IFN-γ secretion, ELISA, CD8 1:5 Mean", "setting": "CD8 of H102 JC, overnight treatment", "value": 232.20}, {"measurement": "IFN-γ secretion, ELISA, CD8 1:5 Mean", "setting": "CD8 of H103 TC, overnight treatment", "value": 145.85}, {"measurement": "IFN-γ secretion, ELISA, CD8 1:5 Mean", "setting": "CD8 of H104 RS, overnight treatment", "value": 278.44}, {"measurement": "IFN-γ secretion (ELISA)", "setting": "CD8 straight, H131 JC, overnight treatment at 37° C.", "value": 64.48}, {"measurement": "IFN-γ secretion (ELISA)", "setting": "CD8 straight, H132 TC, overnight treatment at 37° C.", "value": 4.18}, {"measurement": "IFN-γ secretion (ELISA)", "setting": "CD8 straight, H133 WO, overnight treatment at 37° C.", "value": 72.78}, {"measurement": "IFN-γ secretion (ELISA)", "setting": "H80 DM CD8 (1:5)", "value": 283.94}, {"measurement": "IFN-γ secretion (ELISA)", "setting": "H81 JC (ALS) CD8 (1:5)", "value": 476.90}, {"measurement": "IFN-γ secretion (ELISA)", "setting": "H82 TC (healthy twin) CD8 (1:5)", "value": 84.00}, {"measurement": "IFN-γ secretion (ELISA)", "setting": "H84 JC CD8, Day1, 1:8 dilution", "value": 55.59}, {"measurement": "IFN-γ secretion (ELISA)", "setting": "H84 JC CD8, Day4, 1:8 dilution", "value": 222.88}, {"measurement": "IFN-γ secretion (ELISA)", "setting": "H85 TC CD8, Day1, 1:8 dilution", "value": 193.24}, {"measurement": "IFN-γ secretion (ELISA)", "setting": "H85 TC CD8, Day4, 1:8 dilution", "value": 437.00}, {"measurement": "IFN-γ secretion (ELISA)", "setting": "H88 JC CD8, Day1, 1:8 dilution", "value": 312.43}, {"measurement": "IFN-γ secretion (ELISA)", "setting": "H88 JC CD8, Day4, 1:8 dilution", "value": 386.48}, {"measurement": "IFN-γ secretion (ELISA)", "setting": "H88 JC CD8, Day10, 1:8 dilution", "value": 452.22}, {"measurement": "IFN-γ secretion (ELISA)", "setting": "H88 JC CD8, Day12, 1:8 dilution", "value": 567.09}, {"measurement": "IFN-γ secretion (ELISA)", "setting": "H89 TC CD8, Day1, 1:8 dilution", "value": 497.89}, {"measurement": "IFN-γ secretion (ELISA)", "setting": "H89 TC CD8, Day4, 1:8 dilution", "value": 618.99}, {"measurement": "IFN-γ secretion (ELISA)", "setting": "H89 TC CD8, Day10, 1:8 dilution", "value": 769.15}, {"measurement": "IFN-γ secretion (ELISA)", "setting": "H89 TC CD8, Day12, 1:8 dilution", "value": 663.28}, {"measurement": "IFN-γ secretion (ELISA)", "setting": "H115 JC CD8 (1:10), overnight treatment", "value": 204.4}, {"measurement": "IFN-γ secretion (ELISA)", "setting": "H116 TC CD8 (1:10), overnight treatment", "value": 414.4}, {"measurement": "IFN-γ secretion, ELISA, Mean", "setting": "H117 JC CD8, 1:5 dilution, overnight treatment", "value": 310.37}, {"measurement": "IFN-γ secretion, ELISA, Mean", "setting": "H117.1 JC (1:5), overnight treatment, Table 108", "value": 331.90}, {"measurement": "IFN-γ secretion, ELISA, Mean", "setting": "H117.1 JC (1:10), overnight treatment, Table 108", "value": 229.45}, {"measurement": "IFN-γ secretion, ELISA, Mean", "setting": "H118 TC CD8, 1:5 dilution, overnight treatment", "value": 239.40}, {"measurement": "CD8, Mean (Table 118A)", "setting": "H120 JC CD8, 1:5", "value": 140.63}, {"measurement": "CD8, Mean (Table 118A)", "setting": "H121 TC CD8, 1:5", "value": 40.68}, {"measurement": "CD8, Mean (Table 118A)", "setting": "H122 MV CD8, 1:5", "value": 152.29}, {"measurement": "IFN-γ secretion, ELISA, Mean", "setting": "H143 JC CD8, 1:5, overnight treatment at 37° C.", "value": 46.1}, {"measurement": "IFN-γ secretion, ELISA, Mean", "setting": "H144 TC CD8, 1:5, overnight treatment at 37° C.", "value": 6.2}, {"measurement": "IFN-γ secretion, ELISA, Mean", "setting": "H145 WO CD8, 1:5, overnight treatment at 37° C.", "value": 8.1}, {"measurement": "IFN-γ secretion, Mean", "setting": "H160 JC CD8 (1:5)", "value": 28.37}, {"measurement": "IFN-γ secretion, Mean", "setting": "H161 TC CD8 (1:5)", "value": 9.77}, {"measurement": "IFN-γ secretion, Mean", "setting": "H162 WO CD8 (1:5)", "value": 76.50}, {"measurement": "IFN-γ release", "setting": "H169 JC CD8 (1:5), ALS", "value": 316.25}, {"measurement": "IFN-γ release", "setting": "H170 TC CD8 (1:5), control twin", "value": 19.64}, {"measurement": "IFN-γ release", "setting": "H171 JC CD8 (1:5), ALS", "value": 0.00}, {"measurement": "IFN-γ release", "setting": "H172 TC CD8 (1:5), control twin", "value": 3.47}, {"measurement": "IFN-γ release", "setting": "H174 JC CD8 (1:5), ALS", "value": 0.00}, {"measurement": "IFN-γ release", "setting": "H175 TC CD8 (1:5), control twin", "value": 0.00}, {"measurement": "IFN-γ secretion, Mean", "setting": "H184 JC CD8 (1:5), Table 193", "value": 0.00}, {"measurement": "IFN-γ secretion, Mean", "setting": "H185 TC CD8 (1:5), Table 193", "value": 0.00}, {"measurement": "IFN-γ secretion, Mean", "setting": "H186 JC CD8 (1:5), Table 198", "value": 0.00}, {"measurement": "IFN-γ secretion", "setting": "H186 JC CD8 straight, Table 199", "value": 0}, {"measurement": "IFN-γ secretion, Mean", "setting": "H187 TC CD8 (1:5), Table 198", "value": 0.00}, {"measurement": "IFN-γ secretion", "setting": "H187 TC CD8 straight, Table 199", "value": 0}, {"measurement": "IFN-γ secretion, Mean", "setting": "H190 RS CD8 (1:5), Table 198", "value": 0.00}, {"measurement": "IFN-γ secretion", "setting": "H190 RS CD8 straight, Table 199", "value": 0}, {"measurement": "IFN-γ secretion, Mean", "setting": "H194 JC CD8 (1:5), Table 206", "value": 0.00}, {"measurement": "IFN-γ secretion", "setting": "H194 JC CD8 straight, Table 207", "value": 0.00}, {"measurement": "IFN-γ secretion", "setting": "H195 RS CD8 straight, Table 207", "value": 0.00}, {"measurement": "IFN-γ secretion, Mean", "setting": "H196 TC CD8 (1:5), Table 206", "value": 0.00}, {"measurement": "IFN-γ secretion", "setting": "H196 TC CD8 straight, Table 207", "value": 20.12}, {"measurement": "IFN-γ secretion, Mean", "setting": "H202 JC CD8 (1:5), Table 221", "value": 0.00}, {"measurement": "IFN-γ secretion", "setting": "H203 JC CD8 straight, Table 222", "value": 0.00}, {"measurement": "IFN-γ secretion, Mean", "setting": "H203 TC CD8 (1:5), Table 221", "value": 0.00}, {"measurement": "IFN-γ secretion", "setting": "H204 TC CD8 straight, Table 222", "value": 0.00}, {"measurement": "IFN-γ secretion, Mean", "setting": "H206 JC CD8 (1:5), with or without PTX, Table 226", "value": 0.00}, {"measurement": "IFN-γ secretion", "setting": "H206 JC CD8 straight, with or without PTX, Table 227", "value": 19.89}, {"measurement": "IFN-γ secretion, Mean", "setting": "H209 TS CD8 (1:5), with or without PTX, Table 226", "value": 0.00}, {"measurement": "IFN-γ secretion", "setting": "H209 TS CD8 straight, with or without PTX, Table 227", "value": 57.53}, {"measurement": "IFN-γ secretion, Mean", "setting": "H211 JC CD8 (1:5)", "value": 0.00}, {"measurement": "IFN-γ secretion", "setting": "H211 JC CD8 straight", "value": 44.81}, {"measurement": "IFN-γ secretion, Mean", "setting": "H212 TC CD8 (1:5)", "value": 0.00}, {"measurement": "IFN-γ secretion", "setting": "H212 TC CD8 straight", "value": 31.21}, {"measurement": "IFN-γ secretion, Mean", "setting": "H213 JC CD8 (1:5)", "value": 19.87}, {"measurement": "IFN-γ secretion", "setting": "H213 JC CD8 straight", "value": 25.92}, {"measurement": "IFN-γ secretion, Mean", "setting": "H214 TC CD8 (1:5)", "value": 2.53}, {"measurement": "IFN-γ secretion", "setting": "H214 TC CD8 straight", "value": 15.27}]}
